Data reported in US4743587A, “Hydroxamic acid based collagenase inhibitors” (G. D. Searle & Co., priority 1986, dated 1988).

Molecular target: T1, Human Rheumatoid Synovial Collagenase (Homo sapiens, UniProt P03956)
T1 construct: from tissue
T1 sequence (P03956 100-469): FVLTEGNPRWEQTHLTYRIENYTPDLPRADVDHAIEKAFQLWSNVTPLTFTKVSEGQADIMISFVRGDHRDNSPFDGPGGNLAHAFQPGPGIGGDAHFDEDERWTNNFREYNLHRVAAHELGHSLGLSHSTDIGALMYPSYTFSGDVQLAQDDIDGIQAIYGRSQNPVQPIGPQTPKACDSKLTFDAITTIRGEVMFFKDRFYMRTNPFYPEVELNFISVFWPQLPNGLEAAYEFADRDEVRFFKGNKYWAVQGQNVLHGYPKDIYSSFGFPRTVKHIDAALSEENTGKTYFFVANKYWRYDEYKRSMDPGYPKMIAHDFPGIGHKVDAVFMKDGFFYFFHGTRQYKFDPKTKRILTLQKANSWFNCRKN
Test: Collagenase inhibition (acetyl 14C collagen hydrolysis, procedure of Cawston and Barrett)
Format: biochemical
Settings: incubated at 37° C. for 16 hours with native acetyl 14C collagen and collagenase, Tris HCl-CaCl2, pH 7.6
Experimental: This was determined following the procedure of Cawston and Barrett, (Anal. […] The collagen is acetyl ^14 C collagen. The samples are centrifuged to sediment undigested collagen and an aliquot of the radioactive supernatant removed for assay on a scintillation counter as a measure of hydrolysis.

| IC50 [nM] | SMILES |
| --- | --- |
| 20 | CNC(=O)[C@H](Cc1ccc(OC)cc1)NC(=O)C(CC(=O)NO)CC(C)C (single isomer, unassigned) [2(A), N-[3-(N'-Hydroxycarboxamido)-2-(2-methylpropyl)propanoyl]-O-methyl-L-tyrosine N-Methylamide] |
| 4000 | CNC(=O)[C@H](Cc1ccc(OC)cc1)NC(=O)C(CC(=O)NO)CC(C)C (single isomer, unassigned) [2(B), N-[3-(N'-Hydroxycarboxamido)-2-(2-methylpropyl)propanoyl]-O-methyl-L-tyrosine N-Methylamide] |
| 100 | CNC(=O)[C@H](Cc1ccc(OC)cc1)NC(=O)C(CC(=O)NO)CC(C)C (stereo partly drawn) [Example 1, N-[3-(N'-Hydroxycarboxamido)-2-(2-methylpropyl)propanoyl]-O-methyl-L-tyrosine N-Methylamide] |
